Laboratory results as given in article PMC6821791, “Phase I Trial of Pyragrel, a Novel Thromboxane Synthetase Inhibitor, to Evaluate the Safety, Tolerability, and Pharmacokinetics in Healthy Volunteers” (Frontiers in Pharmacology, 2019).

Assay: Part IV 3×3 crossover study, plasma pharmacokinetics
Format: in vivo, human
Details: metabolite in plasma after pyragrel 240 mg, n=12
Protocol: Pyragrel administration regimens are as follows: In the single-escalating-dose study (Part I), a total of 52 subjects are enrolled to receive one of three treatments (pyragrel, ozagrel, or placebo, diluted in 500 Ml normal saline) as a 3-h i.v. infusion. Six dose levels of pyragrel (30, 60,120, 180, 240, 300 mg) were intravenously infused to healthy subjects. Of the 12 subjects each at the first three dose groups (30, 60, and 120 mg), 8 received pyragrel, 2 received ozagrel (80 mg), and 2 received placebo. Eight subjects were assigned as 4/2/2 for pyragrel, ozagrel, and placebo at the 180 mg level. Only four subjects were enrolled at the 240- and 300-mg group each; all received pyragrel. […] In the saline-volume-changed study (Part II), the safety and pharmacokinetics of pyragrel were assessed by decreasing the volume of dilution saline. […] The ranges of quantification were 0.5–1,000 ng/ml for pyragrel and BBS, and 0.25–500 ng/ml for BJS in serum.
Pharmacokinetic parameters were calculated using the noncompartmental model (NCA module), WinNonlin 6.1 (Pharsight Corporation, Mountain View, CA, USA). […]

## COc1cc(CCC(=O)O)ccc1OCc1nc(C)c(C)nc1C [BBS]
  t1/2: 4.85 ± 1.28 h
